Measurements as given in US6943268B2 (priority 1999, dated 2005).

What was measured:
[1] = tested on: L-selectin on neutrophils; assay: Snezna L-selectin shedding assay, isolated neutrophils (FACScan); type: cell-based, human; conditions: for approximate concentration for 100% LOSS of L-selectin from cell surface: neutrophils, 10 min at 37 deg.
[2] = tested on: other cell surface molecules known to undergo proteolytic cleavage; assay: Phenotypic analysis of other cell surface molecules on neutrophils; conditions: 100 nM PAO
[3] = tested on: L-selectin on lymphocytes; assay: L-selectin shedding assay, isolated lymphocytes (FACScan); type: cell-based, human; conditions: within 20 min
[4] = tested on: Mac-1 (CD18/CD11b) on neutrophils; assay: Cell activation check: cell surface Mac-1 expression on neutrophils; type: cell-based, human; conditions: 100 nM PAO
[5] = Solubility in aqueous media; conditions: at the low concentrations needed for administration
[6] = tested on: L-selectin on neutrophils in whole blood; assay: Whole blood measurement of L-selectin shedding

Quaternary bromobimane
approximate concentration for 100% LOSS of L-selectin from cell surface [1]: 300 uM-

Mersalyl acid
approximate concentration for 100% LOSS of L-selectin from cell surface [1]: 500 uM-

O=[As]c1ccccc1 (stereo not shown)
shedding of other cell surface molecules known to undergo proteolytic cleavage [2]: does not appreciably upregulate Mac-1 or induce the shedding of other cell surface molecules | concentration required for lymphocytes to shed their L-selectin [3]: 5 µM | Mac-1 upregulation [4]: does not appreciably upregulate Mac-1 | induction of L-selectin shedding (in words) [1]: induces L-selectin shedding from neutrophils in a dose dependent manner | approximate concentration for 100% LOSS of L-selectin from cell surface [1]: −1 uM- | concentration at which neutrophils shed most of their L-selectin ([1]; within 10 min): 1 µM | solubility in aqueous media [5]: soluble in most aqueous media | L-selectin shedding from neutrophils ([6]; 1 μM PAO, whole human blood, about 20 min): 50% | L-selectin shedding from neutrophils ([6]; 10 uM PAO, whole blood, within about 20 min, 'should induce'): complete shedding | concentration required to obtain about the same results as 1 uM PAO ([6]; whole blood): 10 µM

O=S(=O)(O)CC1CS[As](c2ccccc2)S1 (stereo not shown)
induction of L-selectin shedding (in words) [1]: shown to induce L-selectin shedding
